Data set [1] can be described thus: Study in patients who received prior amivantamab (January 2024), safety.
In data set [2] the test system is EGFR ex20ins mutant NSCLC that progressed after prior amivantamab. The data set is described as follows: Phase 2b REZILIENT1 module C, antitumor activity. To be noted: 100 mg BID.

As to `C=CC(=O)N[C@H]1C=C(C)c2c(-c3cnc4ccccc4c3)c3c(N)ncnc3n2C1`, in data set [1] (1 patient), the “Treatment-related Grade >3 events, patient with 2 events” value is “anemia and rash”; the “Treatment-related Grade >3 events, patient with 4 events” value is “amylase increase, lymphocyte decrease, hypoxia, and pneumonitis”. In addition, the “Treatment-related Grade >3 events, patients with 1 event” value in data set [1] (4 patients) is reported as “folliculitis, ILD, hypertension, or rash”. Besides, in data set [1] (31 patients), the TRAE anemia was 25.8%, the TRAE folliculitis came out at 12.9%, the TRAE paronychia is given as 22.6% and the TRAE pruritis was determined as 12.9%. In addition, in data set [1] (31 patients), the TRAE rash came out at 38.7%, the TRAE stomatitis is given as 12.9% and the “Treatment-related Grade >3 Adverse Events” value is on record as 6 patients. Moreover, in data set [1] (prior amivantamab), the Safety profile result is listed as “manageable safety profile”. In addition, the “Median PFS” value in data set [2] is recorded as 9.7 months. For the same molecule, in data set [2] (30 evaluable patients), the “Disease control rate (CR+PR+SD)” value turned out to be 90% and the ORR came out at 40%.

The record behind these values is patent US20260382616A1, “TREATMENT METHODS FOR SUBJECTS WITH NON-SMALL CELL LUNG CANCER HAVING AN ABERRATION IN EGFR” (published 2026).
